Where two headings read alike, the source gives them in different places.
Experiments:
HCT116 KO-MTAP cells = assay: Cell proliferation assay (Alamar Blue), MTAP KO cells; format: cell-based; conditions: Homo sapiens
Procedure: (§1) Cell Proliferation Assays:
(§2) A day 0 plate is created in parallel but not dosed, after plating 4 μl of Alamar Blue (Thermo #DAL1100) and incubate for 3 h at 37 C, 5% CO2. Following incubation plates are read using an EnVision plate reader with fluorescence excitation wavelength of 540-570 nm (peak excitation is 570 nm), fluorescence emission at 580-610 nm (peak emission is 585 nm).
(§3) The dosed cell plates were then incubated for 5 days at 37° C. before adding Alamar blue and being read in the Envision following same protocol as for first plate.

HCT116 WT cells = assay: Cell proliferation assay (Alamar Blue), MTAP WT cells; format: cell-based; conditions: Homo sapiens, HCT-116, 120 h, 5 days
Procedure: as §1, §2, §3

IC50 (HCT116 KO-MTAP cells; HCT-116, 120 h, HCT116 MTAP KO, 5 days, read-out: Cell proliferation IC50 (μM) (MTAP KO)): 0.24 µM | IC50 (HCT116 KO-MTAP cells; HCT-116, column 6, read-out: Cell proliferation IC50 in MTAP KO cells): 0.24 µM | IC50 (HCT116 WT cells): 6.1 µM
SMILES: CC#CCN1CC[C@@]2(C1=O)c1ccc(F)cc1C(=O)N2Cc1cc2nc(N)c(F)cc2[nH]1 [Example 2, (S)-2-((5-Amino-6-fluoro-1H-pyrrolo[3,2-b]pyridin-2-yl)methyl)-1′-(but-2-yn-1-yl)-5-fluorospiro[isoindoline-1,3′-pyrrolidine]-2′,3-dione]
